Reference: patent publication US6506381B1, “Modified red blood cell that has surface molecules that neutralize chemical agents” (dated 2003)
Some compounds may have been tested in ways that are not shown here.

System: Fisher rats
Assay: paraoxone challenge of rats carrying modified red blood cells
Details: 5X (X=published LD50) i.p., control rats having no modified red blood cells

paraoxone
lethality: uniformly lethal
